Source: ChEMBL document CHEMBL5727868, “Amido spirocyclic amide and sulfonamide derivatives” (2020)

Sequences of proteins named here, by UniProt entry; tags and fusion partners are left off. A change or cut given only in a name is not applied to a line headed by its entry.
UniProt P43490: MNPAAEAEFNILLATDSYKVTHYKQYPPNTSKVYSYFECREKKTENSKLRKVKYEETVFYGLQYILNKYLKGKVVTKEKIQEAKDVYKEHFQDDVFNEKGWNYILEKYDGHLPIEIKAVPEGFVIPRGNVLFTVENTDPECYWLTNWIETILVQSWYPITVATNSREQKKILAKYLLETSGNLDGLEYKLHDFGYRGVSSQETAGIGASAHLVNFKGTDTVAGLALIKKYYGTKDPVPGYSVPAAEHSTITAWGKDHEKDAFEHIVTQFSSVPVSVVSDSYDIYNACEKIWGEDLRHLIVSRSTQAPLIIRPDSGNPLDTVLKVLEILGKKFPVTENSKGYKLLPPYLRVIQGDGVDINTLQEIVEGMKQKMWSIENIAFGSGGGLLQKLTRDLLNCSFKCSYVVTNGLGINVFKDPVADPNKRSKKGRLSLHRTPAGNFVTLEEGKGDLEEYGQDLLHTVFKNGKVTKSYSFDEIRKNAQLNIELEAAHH

Each compound was assayed against T1, Nicotinamide phosphoribosyltransferase (Homo sapiens, UniProt P43490) (assay: biochemical).

IC50 [nM]	SMILES
398	CCC(=O)N1CCC2(CC1)CC2CNC(=O)c1cc2cnccc2[nH]1 (stereo not drawn)

Each compound was assayed against T1, Nicotinamide phosphoribosyltransferase (assay: not given).

SMILES	IC50 [nM]
O=C(NCC1CC12CCN(C(=O)c1ccccc1)CC2)c1cc2cnccc2[nH]1 (stereo not drawn)	255
COc1ccccc1CNC(=O)N1CCC2(CC1)CC2CNC(=O)c1cc2c(o1)C=NCC2 (stereo not drawn)	118
C=Cc1cc(C(=O)NCC2CC23CCN(C(=O)CCN2CCOCC2)CC3)oc1C=N (stereo not drawn)	526
CCN(CCCCCCNC(=O)N1CC2=C(CCN=C2)C1)C(=O)Cc1ccc(C#N)cc1	49.1
C=CCC(/C=C/CC(=O)N1CCC2(CC1)CC2CNC(=O)C1Cc2cnccc2O1)C(F)(F)F (stereo not drawn)	12
CCC1(CCNC(=O)CC2(C)CCN(C)CC2)CC1CNC(=O)N1CC2=CC=NCC2C1 (stereo not drawn)	6
O=C(NCC1CC12CCN(C(=O)c1cnccn1)CC2)c1cc2ccncc2o1 (stereo not drawn)	579
O=C(CC1=CCCC=C1)N1CCC2(CC1)CC2CNC(=O)N1Cc2ccncc2C1 (stereo not drawn)	23.6
Cn1nc(C(C)(C)C)cc1C(=O)N1CCC2(CC1)CC2CNC(=O)c1cc2c(o1)C=NCC2 (stereo not drawn)	87.1
C=C/C=C/N=C\C=C\N=C\C(=O)N1CCC2(CC1)CC2CNC(=O)c1cc2ccncc2o1 (stereo not drawn)	69.5
CC(C)(CO)OC(=O)N1CCC(CCCNC(=O)N2Cc3ccncc3C2)CC1	28.8
O=C(NCCCC1CCNCC1)c1cc2cnccc2[nH]1	140
O=C(NCC1CC12CCN(C(=O)NCc1ccc(Cl)c(O)c1)CC2)c1cc2ccncc2o1 (stereo not drawn)	113
O=C(NCC1=CCCC=C1)N1CCC2(CC1)CC2CNC(=O)N1Cc2ccncc2C1 (stereo not drawn)	58.8
C/C=N\C=C1/CCN(C(=O)NCCCCCCN(CC)C(=O)c2ccc(N3CCN(C)CC3)cc2)C1	9.69
CC(=O)NCC(C)(C)OC(=O)N1CCC(CCCNC(=O)N2Cc3ccncc3C2)CC1	20.2
C=Cc1cc(C(=O)NCC2CC23CCN(C(=O)c2cnccc2C)CC3)oc1C=N (stereo not drawn)	207
O=C(NCC1CC12CCN(C(=O)Cc1ccccc1)CC2)c1cc2cnccc2[nH]1 (stereo not drawn)	64.8
CC(C)(C)OC(=O)N1CCC2(CC1)CC2CNC(=O)c1cc2[nH]ncc2o1 (stereo not drawn)	384
C=Cc1cc(C(=O)NCC2CC23CCN(C(=O)C2CCCN2C(C)=O)CC3)oc1C=N (stereo not drawn)	812
C=C(CC)C1CCC2(CC1)CC2CNC(=C)N1CC/C(=C\C=C/C)C1 (stereo not drawn)	10.3
O=C(NCC1CC12CCN(Cc1ccccc1)CC2)c1cc2cnccc2[nH]1 (stereo not drawn)	50.5
C=C/C=C\c1c[nH]nc1C(=O)N1CCC2(CC1)CC2CNC(=O)c1cc2c(o1)=CNCC=2 (stereo not drawn)	368
C=C(CCC(=C)/C(C)=C\C=N)NCC1CC12CCN(C(=O)C/C=C\C(=C/C)C(=C)C1CCC(C)CC1)CC2 (stereo not drawn)	22.7
O=C(NCC1CC12CCN(C(=O)CC1CCCCC1)CC2)C1Cc2cnccc2O1 (stereo not drawn)	14.4
C=C(/C=C\C(=C)C(=C)C(CC)CCCCCCNC(=C)c1cc2cnccc2[nH]1)CCCCC(C)CC (stereo not drawn)	54.1
Cc1n[nH]c(C)c1C(=O)N1CCC2(CC1)CC2CNC(=O)c1cc2ccncc2o1 (stereo not drawn)	27
CC(C)(C)CCN1CCC2(CC1)CC2CNC(=O)N1CC2=CN=C(N)CC2C1 (stereo not drawn)	290

Second part, the compound after the results:

IC50 [nM]	SMILES
67.5	C=CC1=C(C=N)CN(C(=O)NCC2CC23CCN(C(=O)OCC(C)(C)O)CC3)C1 (stereo not drawn)
64.2	O=C(NCC1CC12CCN(C(=O)Cc1cccc([SH](=O)=O)c1)CC2)c1cc2ccncc2o1 (stereo not drawn)
11.1	O=C(NCC1CC12CCN(C(=O)CCC1CCCCC1)CC2)C1Cc2cnccc2O1 (stereo not drawn)
54.8	CCOCCNCCC(=O)N1CCC2(CC1)CC2CNC(=O)N1Cc2ccncc2C1 (stereo not drawn)
724	COCC(=O)N1CCC2(CC1)CC2CNC(=O)c1cc2cnccc2[nH]1 (stereo not drawn)
68.3	CC(=O)Nc1cccc(CN2CCC3(CC2)CC3CNC(=O)c2cc3ccncc3o2)c1 (stereo not drawn)
108	O=C(NCC1CC12CCN(C(=O)C1CCCCC1)CC2)c1cc2cnccc2[nH]1 (stereo not drawn)
768	CCN(C)CCCCC(=O)NCCC1(CC)CC1CNC(=O)c1cc2ccncc2o1 (stereo not drawn)
153	CC1CC12CCN(C(=O)CC1CC1)CC2 (stereo not drawn)
423	O=C(NCC1CC12CCN(S(=O)(=O)c1ccccc1)CC2)c1cc2cnccc2[nH]1 (stereo not drawn)
231	CS(=O)(=O)N1CCC(C(=O)N2CCC(CCCNC(=O)c3cc4ccncc4o3)CC2)CC1
56	Cc1cc(C)c(CN2CCC3(CC2)CC3CNC(=O)c2cc3ccncc3o2)cn1 (stereo not drawn)
288	C=C(Oc1cccnc1)C(=O)NCC1CC12CCN(C(=O)CC1CCN(CC)CC1)CC2 (stereo not drawn)
2000	CS(=O)(=O)N1CCC2(CC1)CC2CNC(=O)c1cc2cnccc2[nH]1 (stereo not drawn)
75.2	N#CC1C=CC(NC(=O)N2CCC3(CC2)CC3CNC(=O)c2cc3ccncc3o2)=CC1 (stereo not drawn)
130	CN1CCC(CC(=O)N2CCC3(CC2)CC3CNC(=O)c2cc3cnccc3[nH]2)CC1 (stereo not drawn)
502	O=CN1CCC2(CC1)CC2CNC(=O)c1cc2ccncc2o1 (stereo not drawn)

IC50 [nM]	SMILES
321	O=C(NCCC1CCN(C(=O)c2ccnc3ncccc23)CC1)c1cc2ccncc2o1
121	CCN(C)CCCCC(=O)N1CCC2(CC1)CC2CNC(=O)c1cc2ccncc2o1 (stereo not drawn)
398	C=Cc1cc(C(=O)NCC2CC23CCN(C(=O)C2CCCN2C(N)=O)CC3)oc1C=N (stereo not drawn)
30.1	CCC(CCNC(C)C)CC(=O)N1CCC2(CC1)CC2CNC(=O)N1Cc2ccncc2C1 (stereo not drawn)
269	N#CC1CC=C(C(=O)N2CCC3(CC2)CC3CNC(=O)c2cc3ccncc3o2)C=N1 (stereo not drawn)
104	C=Cc1cc(C(=O)NCC2CC23CCN(C(=O)c2c(CC)noc2C)CC3)oc1C=N (stereo not drawn)
263	C=C/C=C(C#N)\C=C\CC(=O)N(CC)CCCCCCNC(=O)c1cc2cnccc2[nH]1
179	C=C/C(C#N)=C\C=C\CC(=O)N(CC)CCC1CC1CNC(=O)c1cc2cnccc2[nH]1 (stereo not drawn)
97.3	CN1CCN(Cc2cccc(C(=O)N3CCC4(CC3)CC4CNCc3cc4cnccc4[nH]3)c2)CC1 (stereo not drawn)
75.1	C=N/C=C\c1coc(C(=O)NCC2CC23CCN(C(=O)OCCO)CC3)c1 (stereo not drawn)
17.3	O=C(NCC1CC12CCN(C(=O)Cc1cc(F)cc(F)c1)CC2)C1Cc2cnccc2O1 (stereo not drawn)
14.9	CC1(C)CC1C(=O)N1CCC2(CC1)CC2CNC(=O)C1Cc2ccncc2O1 (stereo not drawn)
55.8	CN(CCC1(C)CC1CNC(=O)C1=CC2C=CN=CC2O1)C(N)=O (stereo not drawn)
131	O=C(NCC1CC12CCN(C(=O)CN1CCOCC1)CC2)C1Cc2cnccc2O1 (stereo not drawn)
826	C=Cc1cc(C(=O)NCC2CC23CCN(C(=O)c2cocn2)CC3)oc1C=N (stereo not drawn)
23.3	CC(C)(C)CS(=O)(=O)N1CCC2(CC1)CC2CNC(=O)C1Cc2ccncc2N1 (stereo not drawn)
82.2	Cc1nc2ccccn2c1C(=O)N1CCC2(CC1)CC2CNC(=O)C1Cc2ccncc2O1 (stereo not drawn)
